## Experimental vapor pressure values from OPERA 2.9

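The OPERA project collected these measurements from public sources as training and test data for property models. One number stands for a compound and property, with no spread given. How each value was measured is not recorded, so precision varies. The measured form (salt, isomer or mixture) is not always the one drawn. Unmarked limits or estimates from the upstream databases cannot be ruled out.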

Vapor pressure is log10 of mmHg; the set covers 15 to 30 °C, mostly 20 to 25 °C. Cells with "n/a" have no entry in this list. The databases behind each value are named after "via".

compound,name,log VP (log10 mmHg),via
CCCCC(CC)COB(OCC(CC)CCCC)OCC(CC)CCCC (stereo not drawn),Tris(2-ethylhexyl) borate,-5.409,eChemPortal
C1=COCCC1,"3,4-Dihydro-2H-pyran",1.824,eChemPortal
COCC(F)(F)C(F)(F)C(F)(F)C(F)F,"1,1,2,2,3,3,4,4-Octafluoro-5-methoxypentane",1.045,ICF
C1CCCCCCCCCCC1,Cyclododecane,-1.28,"PubChem, eChemPortal"
CCCOC(=O)[C@H](C)O,Propyl (2S)-2-hydroxypropanoate,-0.158,eChemPortal
Clc1cc(-c2c(Cl)cc(Cl)c(Cl)c2Cl)c(Cl)c(Cl)c1Cl,"2,2',3,3',4,4',5,6'-Octachlorobiphenyl",-5.435,OCHEM
COc1ccc(Oc2ccc(NC(=O)N(C)C)cc2)cc1,Difenoxuron,-2.046,OCHEM
COc1ccc(C(=O)c2ccccc2O)c(O)c1,"2,2'-Dihydroxy-4-methoxybenzophenone",-6.36,eChemPortal
CCCCN(CCCC)c1ccc2c(c1)Oc1cc(C)c(Nc3ccccc3)cc1C21OC(=O)c2ccccc21 (stereo not drawn),n/a,-5.71,eChemPortal
CCCCOC(=O)c1ccc(O)cc1,4-Hydroxybenzoic acid butyl ester,-4.625,eChemPortal
CCCCCCCC/C=C\CCCCCCCC(=O)NCC(C)O (stereo partly drawn),Oleic acid isopropanolamide,-7.888,eChemPortal
Cc1ccc(S(=O)(=O)NN)cc1,Toluene-4-sulphonohydrazide,-7.269,eChemPortal
CC(C)(C)CC(C)(C)c1ccc(OCCOCC[N+](C)(C)Cc2ccccc2)cc1.[Cl-],Benzethonium chloride,-9.687,eChemPortal
FC(F)C(F)(F)C(F)(F)C(F)(F)C(F)(F)C(F)(F)C(F)(F)C(F)F,"1H,8H-Perfluorooctane",1.145,ICF
CCC(F)(OC(F)(F)F)C(F)(F)F (stereo not drawn),"1,1,1,2-Tetrafluoro-2-(trifluoromethoxy)butane",2.581,ICF
Clc1ccc(CSc2ccc(Cl)cc2)cc1,1-Chloro-4-[(4-chlorophenyl)sulfanylmethyl]benzene,-4.917,PubChem
Clc1cc(-c2c(Cl)c(Cl)c(Cl)c(Cl)c2Cl)cc(Cl)c1Cl,"2,3,3',4,4',5,5',6-Octachlorobiphenyl",-6.545,OCHEM
CCC(C)N[Si](C)(C)NC(C)CC (stereo not drawn),"Silanediamine, 1,1-dimethyl-N,N'-bis(1-methylpropyl)-",-1.347,eChemPortal
C[N@@](CCO)CCCN,n/a,-1.824,eChemPortal
Clc1cc(Cl)cc(-c2ccc(Cl)c(Cl)c2Cl)c1,"2,3,3',4,5'-Pentachlorobiphenyl",-5.115,OCHEM
Clc1cccc(-c2c(Cl)c(Cl)cc(Cl)c2Cl)c1,"2,3,3',5,6-Pentachlorobiphenyl",-4.355,OCHEM
C=C(CC(=O)OC)C(=O)OC,Dimethyl itaconate,-1.517,eChemPortal
Cc1cc(N=Nc2ccc([N+](=O)[O-])cc2)ccc1N(C)C,"N,N,2-Trimethyl-4-[(4-nitrophenyl)diazenyl]aniline",-8,OCHEM
CCC(C=O)CC,2-Ethylbutyraldehyde,1.228,OCHEM
Cl.N[C@@H](Cc1cnc[nH]1)C(=O)O.O,L-Histidine hydrochloride monohydrate,-4.736,eChemPortal
CN(C)c1ccc(N=Nc2ccccc2[N+](=O)[O-])cc1,"N,N-Dimethyl-4-[(2-nitrophenyl)diazenyl]aniline",-9,OCHEM
CC(CC(=O)[O-])CC(C)(C)C.CC(CC(=O)[O-])CC(C)(C)C.[Sn+2] (stereo not drawn),"Tin(2+) bis(3,5,5-trimethylhexanoate)",-2.824,eChemPortal
C=CCCCCCCCCCCCCCCCCCCCC,1-Docosene,-4.064,OFMPub
O=C(Cl)c1cc(Cl)cc(Cl)c1,"3,5-Dichlorobenzoyl chloride",-1.322,eChemPortal
O=C1CCCCCCCCCCCN1,Azacyclotridecan-2-one,-4.696,eChemPortal
CCCCCC(CCC)COC(=O)CCCCC(=O)OCC(CCC)CCCCC (stereo not drawn),n/a,-7.084,eChemPortal
CCC(C)NCCO (stereo not drawn),2-[(1-Methylpropyl)amino]ethanol,-0.523,eChemPortal
Oc1cc(Cl)c(Cl)c(Cl)c1O,"3,4,5-Trichlorocatechol",-3.095,OCHEM
COC(=O)c1ccccc1-c1ccc(CBr)cc1,"Methyl 4'-(bromomethyl)[1,1'-biphenyl]-2-carboxylate",-4.913,eChemPortal
CC1COc2c(N3CCN(C)CC3)c(F)cc3c(=O)c(C(=O)O)cn1c23 (stereo not drawn),Ofloxacin,-4.81,OCHEM

A selection of 5 entries from above:

compound,name,log VP (log10 mmHg),via
C=C(CC(=O)OC)C(=O)OC,Dimethyl itaconate,-1.517,eChemPortal
CCCCOC(=O)c1ccc(O)cc1,4-Hydroxybenzoic acid butyl ester,-4.625,eChemPortal
CCCCCCCC/C=C\CCCCCCCC(=O)NCC(C)O (stereo partly drawn),Oleic acid isopropanolamide,-7.888,eChemPortal
CCCCN(CCCC)c1ccc2c(c1)Oc1cc(C)c(Nc3ccccc3)cc1C21OC(=O)c2ccccc21 (stereo not drawn),n/a,-5.71,eChemPortal
CCC(F)(OC(F)(F)F)C(F)(F)F (stereo not drawn),"1,1,1,2-Tetrafluoro-2-(trifluoromethoxy)butane",2.581,ICF

Source: data files of OPERA 2.9 (Mansouri et al.), github.com/kmansouri/OPERA.